{"source": "paper PMC7758436", "about": "“Licochalcone a Exhibits Leishmanicidal Activity in vitro and in Experimental Model of Leishmania (Leishmania) Infantum” (Frontiers in Veterinary Science, 2020)", "tested_on": "amastigote forms of L. (L.) infantum", "assay": "In vitro leishmanicidal activity against intracellular amastigote forms in peritoneal murine macrophages (Giemsa, parasite load)", "format": "cell-based, Leishmania (Leishmania) infantum", "details": "CC50/IC50, intracellular amastigotes vs peritoneal murine macrophages", "procedure": "L. (L.) amazonensis (IFLA/BR/67/PH8.) was maintained as promastigote forms in Roswell Park Memorial Institute medium (RPMI 1640 medium) (Gibco, Grand Island, NY, USA), supplemented with antibiotics (penicillin 10.000 UI/mL and streptomycin […]) (Cultilab, Campinas, BR), and 10% bovine fetal serum (FBS) (Cultilab), at 25°C. L. (L.) infantum (MHOM/BR/1972/LD) was maintained as promastigote forms in M199 medium (Gibco), supplemented with 10% FBS (Cultilab), antibiotics (Cultilab), 5% human urine and 0.25% hemin (Sigma-Aldrich) at 25°C, and amastigote forms were obtained from the spleen of golden hamsters after 60 to 70 days of infection ([21]). Peritoneal murine macrophages were obtained by washing the peritoneal cavity of BALB/c mice with RPMI 1640 medium (Gibco) after 72 h of the application of 5 mL of the sodium thioglycolate (Sigma-Aldrich) at 3%, and then were cultivated in RPMI 1640 medium (Gibco) supplemented with antibiotics and 10% FBS (Gibco), at 37°C in a 5% CO2 humidified incubator.\nInitially, a screening was performed against promastigote forms of L. (L.) amanzonensis. […] The slides were stained with Giemsa (Synth, Diadema, BR), analyzed using an optical microscopy (Nikon), and the parasite load was defined by the number of infected macrophages X number of intracellular amastigotes/number of total macrophages ([23]). […]", "data": [{"smiles": "C=CC(C)(C)c1cc(/C=C/C(=O)c2ccc(O)cc2)c(OC)cc1O", "note": "[LicoA (1), Licochalcone A]", "values": [{"measurement": "selectivity index (SI) to L. (L) infantum", "value": 4.16}]}]}
